Data as given in patent US20060134602A1, “Methods of identifying cytotoxic effects in quiescent cells” (priority 2004, published 2006).

Test system: quiescent IMR-90 human lung fibroblasts
Conditions: 24, 48, 72 hours

CO[C@@]12[C@H](COC(N)=O)C3=C(C(=O)C(C)=C(N)C3=O)N1C[C@@H]1N[C@@H]12 [Mitomycin C, mitomycin C]
time dependence of cytotoxicity against quiescent fibroblasts: time-dependent increases in cytotoxicity
